Laboratory results published in PubChem BioAssay AID651957 (The Scripps Research Institute Molecular Screening Center, 2012).
The entries are a selection whose mix differs from that of the whole data set. Calls of active or inactive are those of the source.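 How the source made its calls: active means inhibition above the mean inhibition of all tested compounds plus 3 SD, set per campaign (cut at about 52% in these data); inactive means the rest.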

The chains behind the UniProt entries cited, without tags or fusion partners.
UniProt Q15596, whole entry: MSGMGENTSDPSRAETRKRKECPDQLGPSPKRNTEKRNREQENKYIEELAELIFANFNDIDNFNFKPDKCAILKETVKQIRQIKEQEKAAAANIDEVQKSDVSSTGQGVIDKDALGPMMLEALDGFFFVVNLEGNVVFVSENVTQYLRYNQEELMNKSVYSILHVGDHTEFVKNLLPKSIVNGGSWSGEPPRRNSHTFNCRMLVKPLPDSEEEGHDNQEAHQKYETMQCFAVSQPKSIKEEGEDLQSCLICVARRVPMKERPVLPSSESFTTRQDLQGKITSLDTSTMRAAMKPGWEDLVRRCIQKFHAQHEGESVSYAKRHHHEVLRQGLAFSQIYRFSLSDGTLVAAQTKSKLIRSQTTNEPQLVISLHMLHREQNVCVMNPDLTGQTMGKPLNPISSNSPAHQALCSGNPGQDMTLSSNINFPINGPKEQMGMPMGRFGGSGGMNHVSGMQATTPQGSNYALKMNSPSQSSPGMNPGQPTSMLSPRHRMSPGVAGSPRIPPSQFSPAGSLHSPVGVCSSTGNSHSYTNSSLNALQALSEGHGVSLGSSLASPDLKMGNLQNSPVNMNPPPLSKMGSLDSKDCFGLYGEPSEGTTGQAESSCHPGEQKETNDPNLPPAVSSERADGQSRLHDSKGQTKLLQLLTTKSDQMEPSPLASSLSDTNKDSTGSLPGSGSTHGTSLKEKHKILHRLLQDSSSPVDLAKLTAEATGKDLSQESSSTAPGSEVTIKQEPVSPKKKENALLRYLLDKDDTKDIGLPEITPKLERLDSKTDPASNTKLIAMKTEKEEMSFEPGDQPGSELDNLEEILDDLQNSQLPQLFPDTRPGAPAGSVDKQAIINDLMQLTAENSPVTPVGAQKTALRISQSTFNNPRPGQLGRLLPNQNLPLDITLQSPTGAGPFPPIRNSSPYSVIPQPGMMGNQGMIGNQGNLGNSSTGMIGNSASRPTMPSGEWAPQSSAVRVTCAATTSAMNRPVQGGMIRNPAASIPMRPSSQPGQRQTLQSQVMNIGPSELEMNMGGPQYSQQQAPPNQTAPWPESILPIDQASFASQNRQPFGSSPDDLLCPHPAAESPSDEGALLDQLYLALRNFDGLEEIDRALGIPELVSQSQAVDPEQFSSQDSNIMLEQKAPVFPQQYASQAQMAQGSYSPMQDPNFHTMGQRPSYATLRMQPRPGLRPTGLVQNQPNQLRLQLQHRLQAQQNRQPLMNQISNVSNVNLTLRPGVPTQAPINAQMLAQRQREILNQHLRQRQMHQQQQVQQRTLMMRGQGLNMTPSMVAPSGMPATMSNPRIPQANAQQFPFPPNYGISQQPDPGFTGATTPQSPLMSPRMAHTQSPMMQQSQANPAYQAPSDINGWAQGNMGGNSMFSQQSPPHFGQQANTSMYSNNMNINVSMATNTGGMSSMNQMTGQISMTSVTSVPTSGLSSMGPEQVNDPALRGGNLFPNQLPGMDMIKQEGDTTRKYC

molecular target: Nuclear receptor coactivator 2 (Homo sapiens) (UniProt Q15596); assay: inhibition of GAL4-SRC2 driven luciferase reporter, primary screen, SRC2 inhibitor project, cell-based, luminescence (AID 651957); details: HEK293 GAL4-SRC2 luciferase reporter, at 9 µM, active compounds read high;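 further: 0% = DMSO treated cells and 100% = cells given Gossypol at 36 µM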

Row | Structure (SMILES) | inhibition
1 | CCC(=O)N(c1ccccc1)C1(COC)CCN(CCn2nnn(CC)c2=O)CC1 | inactive: 6.72%
2 | CCC(=O)N(c1ccccc1)C1(COC)CCN(CCc2cccs2)CC1 | inactive: 4.41%
